The target of experiment [1] is Acetylcholinesterase (Bos taurus, UniProt P23795).
Experiment [2] has as its target Acetylcholinesterase (Homo sapiens, UniProt P22303).
For a further experiment, the target named is Cholinesterase (Homo sapiens, UniProt P06276). The conditions noted are these: Serum.

“And” between values parts separate entries of the source, which are not always exact repeats. Identical values can stand only once.

As a reminder, the IC50 is the concentration that inhibits the measured activity by half. A lower IC50 goes with greater potency.

As for `CCC1=CC2Cc3nc4ccc(Cl)cc4c(N)c3C(C1)C2` (stereo unspecified), the values for the IC50 against Acetylcholinesterase [1], at Acetylcholinesterase [2] and against Cholinesterase were 257 nM, 425 nM and 762 nM, respectively.

On to `CCC1=CC2Cc3nc4cc(F)ccc4c(N)c3C(C1)C2` (stereo unspecified), for which, at Cholinesterase, the IC50 is 32.4 nM and 185 nM and 57.4 nM.

On to `CCC1=CC2Cc3nc4cccc(F)c4c(N)c3C(C1)C2` (stereo unspecified), for which the values for the IC50 on Acetylcholinesterase [2] and against Cholinesterase were 29.5 nM and 109 nM, respectively.
